This is an account of results in PubChem BioAssay AID892 (National Center for Advancing Translational Sciences (NCATS), 2007).

Sequences of proteins named here, by UniProt entry; tags and fusion partners are left off.
UniProt P38398, whole entry: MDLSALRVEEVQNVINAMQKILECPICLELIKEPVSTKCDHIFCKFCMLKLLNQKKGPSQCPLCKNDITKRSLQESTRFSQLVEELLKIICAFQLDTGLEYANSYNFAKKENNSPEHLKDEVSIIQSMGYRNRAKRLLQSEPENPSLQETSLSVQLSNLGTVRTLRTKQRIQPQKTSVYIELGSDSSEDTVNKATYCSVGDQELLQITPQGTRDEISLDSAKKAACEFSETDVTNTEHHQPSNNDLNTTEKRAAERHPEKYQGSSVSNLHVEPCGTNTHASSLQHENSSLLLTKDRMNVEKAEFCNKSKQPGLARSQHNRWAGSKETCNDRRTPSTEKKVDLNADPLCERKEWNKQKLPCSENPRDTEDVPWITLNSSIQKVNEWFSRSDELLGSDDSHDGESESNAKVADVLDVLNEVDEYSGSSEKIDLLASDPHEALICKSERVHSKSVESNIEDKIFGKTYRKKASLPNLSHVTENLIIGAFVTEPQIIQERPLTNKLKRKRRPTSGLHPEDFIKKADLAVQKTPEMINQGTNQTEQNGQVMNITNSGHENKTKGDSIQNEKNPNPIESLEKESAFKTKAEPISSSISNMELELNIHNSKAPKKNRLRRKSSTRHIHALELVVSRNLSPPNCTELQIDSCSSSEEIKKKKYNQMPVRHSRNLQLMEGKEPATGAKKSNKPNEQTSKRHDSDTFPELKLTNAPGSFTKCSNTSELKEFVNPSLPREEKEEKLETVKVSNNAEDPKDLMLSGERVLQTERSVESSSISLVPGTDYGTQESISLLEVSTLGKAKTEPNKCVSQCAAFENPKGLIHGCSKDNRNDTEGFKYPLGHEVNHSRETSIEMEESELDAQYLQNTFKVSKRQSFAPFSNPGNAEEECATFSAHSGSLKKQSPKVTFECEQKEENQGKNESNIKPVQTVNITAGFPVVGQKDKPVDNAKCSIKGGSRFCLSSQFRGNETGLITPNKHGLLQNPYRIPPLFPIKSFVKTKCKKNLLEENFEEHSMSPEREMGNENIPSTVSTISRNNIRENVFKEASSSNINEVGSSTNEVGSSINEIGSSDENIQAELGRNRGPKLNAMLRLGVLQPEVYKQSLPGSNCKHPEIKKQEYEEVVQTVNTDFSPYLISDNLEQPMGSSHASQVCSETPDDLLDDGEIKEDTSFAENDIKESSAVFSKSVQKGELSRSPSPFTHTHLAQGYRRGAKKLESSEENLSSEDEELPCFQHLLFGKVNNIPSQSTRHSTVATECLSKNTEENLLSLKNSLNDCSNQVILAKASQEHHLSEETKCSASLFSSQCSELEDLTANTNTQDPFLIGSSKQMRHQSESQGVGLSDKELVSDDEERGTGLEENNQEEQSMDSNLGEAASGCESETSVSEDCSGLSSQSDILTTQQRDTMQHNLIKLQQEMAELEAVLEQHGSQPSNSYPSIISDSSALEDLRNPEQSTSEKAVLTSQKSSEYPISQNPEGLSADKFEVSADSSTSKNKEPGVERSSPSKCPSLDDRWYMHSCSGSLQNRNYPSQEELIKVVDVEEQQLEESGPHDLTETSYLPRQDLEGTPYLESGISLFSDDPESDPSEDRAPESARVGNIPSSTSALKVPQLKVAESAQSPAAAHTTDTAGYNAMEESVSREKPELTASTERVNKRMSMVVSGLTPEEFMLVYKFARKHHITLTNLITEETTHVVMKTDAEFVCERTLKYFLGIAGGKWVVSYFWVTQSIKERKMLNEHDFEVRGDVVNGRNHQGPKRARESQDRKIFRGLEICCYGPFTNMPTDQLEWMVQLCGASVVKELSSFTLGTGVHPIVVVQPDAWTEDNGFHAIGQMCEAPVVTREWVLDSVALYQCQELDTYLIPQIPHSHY

The list shows a part of the results, in another mix than the full data. Active and inactive are the calls of the source. The call rests on the fitted dose curve; in most records, active means well fitted inhibition curve with a large enough effect; inconclusive means small, poorly fitted or top-dose-only effect; inactive means no such curve, though single readings can be large or run the other way.
On the % scale 0 is the no-effect control and ±100 the full control effect.

The target in the experiment is Breast cancer type 1 susceptibility protein (Homo sapiens) (UniProt P38398). In words: qHTS Assay for Inhibitors of BRCT-Phosphoprotein Interaction (Red Fluorophore). The following applies: BRCT-phosphopeptide binding, red fluorescence polarization; at 76.9 µM (top of the series) unless noted. The procedure:
NIH Molecular Libraries Screening Centers Network [MLSCN]
NIH Chemical Genomics Center [NCGC]
PI Name: Natarajan, Amarnath; University of Texas
A complex of BRCT (C-terminal portion of BRCA1, MW ~35 kDa, His-tagged) and fluorescently labeled pBACH1 phosphorylated 10 aa peptide fragment of BACH1, a helicase implicated in DNA repair, is incubated with library members. Inhibitors of BRCT-pBACH1 binding are detected by a decrease in the fluorescence polarization (FP) of the fluorophore. In order to minimize the effect of fluorescence artifacts and to increase the overall robustness of the screen, the compound library members were incubated in separate reactions with rhodamine-labeled probe-protein complexes. Protein and labeled probes were supplied by Dr. Amarnath Natarajan, Department of Pharmacology and Toxicology, University of Texas Medical Branch Galveston, TX.
Assay Buffer: 16mM Na2HPO4, 4 mM NaH2PO4, 150 mM NaCl, 1 mM EDTA, 1 mM DTT, 0.02% NaN3, and 0.01% Tween 20 at pH 7.3.
Assay Controls: 100 nM TAMRA labeled decapeptide dispensed into columns 3 and 4 to generate negative control (full inhibition of
binding, -100 % activity). 100 nM labeled decapeptide/100 nM protein in columns 1, 2, 5 - 48. Titration of unlabeled decapeptide control (from 10 mM, then 1:2 dilution in duplicate) pin-transferred to column 2, rows 1 to 16. Column 1 is neutral.
Three uL of reagents were dispensed to 1536-well Greiner black solid-bottom plates. Compounds and controls (23 nL) were transferred via Kalypsys PinTool. The plates were incubated for 12 min at room temperature, and then read on ViewLux (Perkin-Elmer) High-throughput CCD imager using BODIPY for the rhodamine-labeled decapeptide probe polarization filter sets. During dispense, reagent bottles were kept submerged into 4 deg C water bath and all liquid lines were covered with aluminum foil to minimize probe and protein degradation. All screening operations were performed on a Kalypsys robotic system (Kalypsys, Inc., San Diego, CA) containing one RX-130 and two RX-90 anthropomorphic robotic arms. The timing and order of assay plates passing through the screening system were adjusted such that each compound library plate was assayed against the fluorescein- and rhodamine-labeled assay systems at immediately adjacent time points.
`O=[N+]([O-])[O-].[NH4+]`: the activity change, negative = inhibition was inactive: -1.37%.

In the case of `COc1ccccc1OP(C)(=O)Nc1ccc(C)cc1` (configuration not stated), the activity change, negative = inhibition was inactive: 0.68%.

`Cc1ccc(NP(C)(=O)Oc2ccccc2)c(C)c1` (configuration not stated): the activity change, negative = inhibition is inactive: -2.41%.

Consider `N1=C(c2nnc(-c3nn[nH]n3)nn2)NNN1`, for which the activity change, negative = inhibition was inactive: -4.02% [at 15.4 µM].

`CP(=S)(Nn1cnnc1)Oc1ccccc1` (configuration not stated): the activity change, negative = inhibition is inactive: -1.24%.

Turning to `CP(=O)(NC(=O)Nc1ccccc1)Oc1ccccc1` (configuration not stated), the activity change, negative = inhibition is inactive: 0.0306%.

On to `CCOP(C)(=S)SCC(=O)NC(C)C(=O)O` (configuration not stated), for which the activity change, negative = inhibition was inactive: 0.548%.

As for `Cc1nc2ccc3ccccc3c2s1.O=[N+]([O-])c1cc([N+](=O)[O-])c(O)c([N+](=O)[O-])c1`, the activity change, negative = inhibition was inactive: -1.04%.

In the case of `O=[N+]([O-])c1cccc([N+](=O)[O-])c1`, the activity change, negative = inhibition was inactive: 0.589%.

Turning to `Cc1ccc([N+](=O)[O-])cc1[N+](=O)[O-]`, the activity change, negative = inhibition was inactive: -1.68%.

For `Cc1ccc(C)c(NP(C)(=O)Oc2ccccc2)c1` (configuration not stated), the activity change, negative = inhibition was inactive: -0.856%.

Turning to `CP(=O)(Nc1ccccc1F)Oc1ccccc1` (configuration not stated), the activity change, negative = inhibition is inactive: 0.352%.

`CCC(C)(OO)OOC(C)(CC)OO` (configuration not stated): the activity change, negative = inhibition is inactive: 0.401%.

For `Cc1cccc([N+](=O)[O-])c1[N+](=O)[O-]`, the activity change, negative = inhibition was inactive: 1.4%.

On to `CN(C)CCOC(=O)C(O)(c1ccccc1)C1CCCCC1` (configuration not stated), for which the activity change, negative = inhibition is inactive: -2.36%.

Take `Cc1ccc([N+](=O)[O-])c([N+](=O)[O-])c1`: the activity change, negative = inhibition is inactive: 0.334%.

`Cc1c([N+](=O)[O-])cccc1[N+](=O)[O-]`: the activity change, negative = inhibition was inactive: 1.13%.

Take `CCOP(=O)(CC)OCC`: the activity change, negative = inhibition was inactive: 0.92%.

For the compound `CCOP(C)(=S)SCC(=O)NC(C)(CC)C(=O)O` (configuration not stated), the activity change, negative = inhibition is inactive: 1.25%.

On to `NNC(NN)NN.n1nc(-c2nn[nH]n2)n[nH]1`, for which the activity change, negative = inhibition was inactive: 1.18% [at 15.4 µM].

For `CCN(CCCl)Cc1ccccc1C`, the activity change, negative = inhibition is inactive: -0.394%.

Consider `Cc1ccccc1NP(C)(=O)Nc1ccccc1C`, for which the activity change, negative = inhibition is inactive: 0.481%.

As for `[NH4+].[O-][Cl+3]([O-])([O-])[O-]`, the activity change, negative = inhibition is inactive: -0.0966%.

On to `CP(=O)(Nc1ccc2c(c1)OCCO2)Oc1ccccc1` (configuration not stated), for which the activity change, negative = inhibition is inactive: 0.108%.

As for `CP(=O)(Oc1ccccc1)N1CCOC1=O` (configuration not stated), the activity change, negative = inhibition was inactive: -1.08%.

With `COc1ccccc1OP(C)(=O)Nc1c(C)n(C)n(-c2ccccc2)c1=O` (configuration not stated), the activity change, negative = inhibition was inactive: -0.794%.

Turning to `OCCSCCO`, the activity change, negative = inhibition was inactive: 1.24%.

On to `N#[O+].[C-]#N.[C-]#N.[C-]#N.[C-]#N.[C-]#N.[Fe+2].[Na+].[Na+]`, for which the activity change, negative = inhibition was inactive: 2.23%.

As to `C/C1=C2N=C(/C=C3N=C(/C(C)=C4\[N-][C@@](C)([C@H]5N=C1[C@@](C)(CCC(=O)NC[C@H](C)OP(=O)([O-])O[C@@H]1[C@H](O)[C@H](n6cnc7cc(C)c(C)cc76)O[C@@H]1CO)[C@@H]5CC(N)=O)[C@](C)(CC(N)=O)[C@H]4CCC(N)=O)[C@@](C)(CC(N)=O)[C@@H]\3CCC(N)=O)C(C)(C)[C@@H]/2CCC(N)=O.[C-]#N.[Co+3]`, the activity change, negative = inhibition is inactive: -0.485% [at 34.4 µM].

On to `COc1ccccc1OP(C)(=O)Nc1ccc(C)c(C)c1` (configuration not stated), for which the activity change, negative = inhibition was inactive: 0.539%.

As for `Cc1nc2ccc3ccccc3c2o1.O=[N+]([O-])c1cc([N+](=O)[O-])c(O)c([N+](=O)[O-])c1`, the activity change, negative = inhibition was inactive: -1.93%.

In the case of `CP(=O)(Nc1ccccn1)Oc1ccccc1` (configuration not stated), the activity change, negative = inhibition was inactive: 1.63%.
